Results: ChEMBL document CHEMBL5104139, “A critical update on the strategies towards small molecule inhibitors targeting Serine/arginine-rich (SR) proteins and Serine/arginine-rich proteins related kinases in alternative splicing” (Bioorg Med Chem, 2022)

By UniProt entry, the sequences of proteins in these tests, tags left out.
UniProt P78362, whole entry: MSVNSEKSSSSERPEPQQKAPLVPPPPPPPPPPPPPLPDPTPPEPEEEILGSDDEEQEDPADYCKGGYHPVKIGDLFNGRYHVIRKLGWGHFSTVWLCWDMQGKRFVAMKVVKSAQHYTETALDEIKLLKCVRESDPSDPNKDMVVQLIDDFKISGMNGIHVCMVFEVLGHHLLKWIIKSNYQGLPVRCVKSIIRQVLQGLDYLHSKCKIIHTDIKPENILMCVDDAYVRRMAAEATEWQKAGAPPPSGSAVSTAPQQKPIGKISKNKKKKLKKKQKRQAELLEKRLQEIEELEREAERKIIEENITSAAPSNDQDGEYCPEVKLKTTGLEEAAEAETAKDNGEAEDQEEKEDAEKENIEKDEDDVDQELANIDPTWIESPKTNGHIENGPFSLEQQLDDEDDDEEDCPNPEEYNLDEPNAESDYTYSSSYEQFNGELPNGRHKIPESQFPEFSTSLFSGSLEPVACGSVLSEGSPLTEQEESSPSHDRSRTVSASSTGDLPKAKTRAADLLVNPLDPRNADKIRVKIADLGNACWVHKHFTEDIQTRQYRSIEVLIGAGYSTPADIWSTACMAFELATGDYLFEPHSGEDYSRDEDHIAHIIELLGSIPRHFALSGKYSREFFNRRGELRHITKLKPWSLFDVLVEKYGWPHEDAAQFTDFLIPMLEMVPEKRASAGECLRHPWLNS

Biological target: SRSF protein kinase 2 (Homo sapiens, UniProt P78362)

CCc1cc2c(cc1-c1cccc(S(=O)(=O)F)c1)C(C)(C)c1[nH]c3cc(C#N)ccc3c1C2=O
IC50: 98 nM
